This note sets out measurements from patent US10712349B2, “Circulating KIM-1 levels for detection of pathologies associated with injury to, or cancer of, the kidney” (THE BRIGHAM AND WOMEN'S HOSPITAL, INC., priority 2014, dated 2020).

The test system of this series is Male Sprague-Dawley rats. In words: Gentamicin-induced nephrotoxicity in rats. Format: in vivo, rat. As to conditions: day 11. As for the experimental part: Male Sprague-Dawley rats weighing approximately 230-260 g were administrated 0.9% saline, 50 mg/kg gentamicin, or 200 mg/kg gentamicin intraperitoneally daily for 10 days. Rats were provided with free access to food and water and subjected to a 12-hour light and dark cycle. Rats were euthanized on day 11, and urine, plasma, and tissue samples were collected and analyzed. Tissue samples were fixed in 10% neutral buffered formalin or snap frozen. For histologic assessment, […] paraffin sections were prepared and stained with hematoxylin and eosin. The rat studies were undertaken in accordance with criteria outlined in a license granted under the Animals (Scientific Procedures) Act 1986 and approved by the University of Liverpool Animal Ethics Committee.
Microbead-based assays for rodent and human plasma and serum KIM-1 were developed, and extensive validation of the assays were performed using previously described approaches.^24 Urinary KIM-1 in rodents and humans was measured using microbead based assays as described previously.5,7,25,26 Capture antibodies (MAB 1817 for mouse, AF1750 for human [R&D Systems]), MARKE^25 antibody for rat (developed at Brigham and Women's Hospital) were conjugated with COOH polystyrene beads (Bio-Rad) with an amine coupling kit (Bio-Rad) using N-hydroxysuccinamide-1-ethyl-3-(3-dimethylaminopropyl) carbodiimide chemistry according to the manufacturer's protocol. Approximately 6000 beads in […] of sample diluent buffer (0.1M HEPES, 0.1M NaCl, 0.1% Tween-20, and 1% BSA; pH, 7.4; filter sterilized) were incubated with […] of sample or recombinant KIM-1 protein (1817-TM-050-CF for mice, 1750-TM for humans [R&D systems]), and KIM-FC for rats [developed at Brigham and Women's Hospital]) for 45 minutes. […]
The inventors also investigated whether plasma KIM-1 levels can serve as a biomarker in gentamicin-induced kidney injury in a different rodent species, rats. […] The extent of kidney damage was assessed by histo-pathologic analysis and changes in plasma creatinine. […]

Entries after “also recorded” stand apart in the source; their conditions may differ.

As to gentamicin, the Plasma creatinine entry is listed as “but not those treated with 50 mg/kg gentamicin” (50 mg/kg per day for 10 days) and “significantly elevated” (200 mg/kg per day for 10 days). Also, for the setting “10 daily doses of 50 or 200 mg/kg”, the “plasma KIM-1 levels” value is recorded as “elevated in a graded fashion; also recorded: significantly increased”.
